This assay has as its system HEK-293T NF-kB luciferase reporter, luminescence counterscreen. The assay can be described thus: NF-kB reporter suppression in HEK-293T cells – luminescence, B-cell screen hits, counter-screen for BCR NF-kB inhibitor project, dose response (AID 489022). A general note: The purpose of a counterscreen is to sort out artefacts and off-target activity.

For orientation: IC50 means the point on the concentration scale where inhibition reaches its midpoint. With `CNC(=O)c1cc(Oc2ccc(NC(=O)Nc3ccc(Cl)c(C(F)(F)F)c3)cc2)ccn1`, the IC50 was 3.42 µM.

The values are drawn from PubChem BioAssay AID489022 (Sanford-Burnham Center for Chemical Genomics, 2010).
